The text below walks through data of PubChem BioAssay AID602282 (Johns Hopkins Ion Channel Center, 2012).

This is a selection; strong and weak results do not stand in their true shares. Calls of active or inactive are those of the source.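 How the source made its calls: active means inhibition above 3 SD of the buffer control wells (cut at about 41% in these data); inactive means the rest.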

This assay can be described thus: reduced carbachol calcium response, RGS4-induced M3R cells, confirmation, RGS4 activator project, cell-based, HEK293 M3R/RGS4 inducible, calcium flux, duplicate (AID 602282).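 Further: signal is the integrated peak-minus-minimum Fluo4 fluorescence over baseline ratio.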 To be noted: carbachol calcium flux Fluo4, at 10 µM, active compounds read high.
Broadly, the inhibition is the share of the control response that was lost under treatment. On to `O=C(OC1CN2CCC1CC2)c1cccc(Cl)c1` (stereo not given), for which the inhibition was active: 86.5%.
For the compound `CN1CCCC(OC(=O)C(c2ccccc2)c2ccccc2)C1` (stereo not given), the inhibition was active: 91%.
Take `O=C(OC1CN2CCC1CC2)C12CC3CC(CC(C3)C1)C2` (stereo not given): the inhibition is active: 91.5%.
On to `O=C(OC1CN2CCC1CC2)c1ccc(Cl)cc1` (stereo not given), for which the inhibition is active: 59%.
On to `CN(C(=O)Cc1ccccc1)[C@@H]1CC[C@]2(CCCO2)C[C@H]1N1CCCC1`, for which the inhibition was inactive: 0%.
